Here are results for one compound from patent US7026280B2, “LV V-Haemorphin-7 neuroactive peptide and methods of use” (Howard Florey Institute of Experimental Physiology, priority 1996, dated 2006).

This experiment concerns embryonic chicken sympathetic neurons. Description: Neurite outgrowth from cultured E11 chicken sympathetic neurons. Conditions: 10^−8 M Ang IV; test substance 1 μM.

`CCCC[C@H](N)C(=O)N[C@@H](Cc1ccc(O)cc1)C(=O)N[C@H](C(=O)N[C@@H](Cc1c[nH]cn1)C(=O)N1CCC[C@H]1C(=O)N[C@@H](Cc1ccccc1)C(=O)O)[C@@H](C)CC`: the “Effect on the inhibition of neurite outgrowth by Ang IV” value is given as “totally reversed”.
